Test results: paper PMC2192493 (The Journal of Experimental Medicine, 1996)

System: CS-pulsed P815 cells
Format: cell-based, mouse
Conditions: CS-immunized control mice, E/T ratio 50:1, mean + SEM

DSYIPSAEKI [CS peptide]
cytotoxicity of CS-induced CTL against CS-pulsed P815 cells, control mice: 52.7 + 7.4%
